In patent US20250367182A1, “METHOD FOR INDUCING IN-SITU REGENERATION OF MAMMAL AND USE THEREOF” (INSTITUTE OF ZOOLOGY, CHINESE ACADEMY OF SCIENCES, priority 2022, published 2025):

System: 2 mm diameter mouse ear hole
Assay: 2 mm ear hole trauma mouse model (ear hole closure)
Format: in vivo, C57BL/6 mice
Settings: 10-20 mg/kg, administered as CHX, measured 21 days after damage, n≥8

Substance | healing of 2 mm ear holes by ferroptosis / autophagy inhibitors
3BDO | neither inhibitors of ferroptosis nor autophagy could promote the healing of the ear hole like CHX
Autophinib | neither inhibitors of ferroptosis nor autophagy could promote the healing of the ear hole like CHX
UAMC-3203 | neither inhibitors of ferroptosis nor autophagy could promote the healing of the ear hole like CHX
